Data: ChEMBL document CHEMBL1145777 (J Med Chem, 2003)

Protein sequences, listed by entry. Tags and fused reporters are not part of them. Lines headed by an entry give the natural chain unless they say otherwise; changes in a name come on top.
UniProt P41145: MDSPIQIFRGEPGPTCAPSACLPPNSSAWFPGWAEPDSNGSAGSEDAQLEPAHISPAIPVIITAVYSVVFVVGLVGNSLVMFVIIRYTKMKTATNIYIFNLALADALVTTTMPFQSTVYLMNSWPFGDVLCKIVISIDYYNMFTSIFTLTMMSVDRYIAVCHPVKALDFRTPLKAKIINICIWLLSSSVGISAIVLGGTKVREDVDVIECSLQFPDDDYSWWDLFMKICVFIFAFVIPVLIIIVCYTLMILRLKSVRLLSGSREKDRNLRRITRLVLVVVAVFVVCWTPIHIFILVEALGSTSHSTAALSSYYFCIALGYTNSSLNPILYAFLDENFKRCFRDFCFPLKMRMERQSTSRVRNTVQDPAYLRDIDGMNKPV

Biological target: Kappa-type opioid receptor (Homo sapiens, UniProt P41145)
Experiment: Incorporation of [35S]GTP-gamma-S, into CHO membranes expressing human Opioid receptor kappa 1

## CN(C(=O)Cc1ccc(Cl)c(Cl)c1)C1CCC2(CCCO2)CC1N1CCCC1 (stereo unspecified)
  EC50: 18 nM
